Source: patent US9670210B2, “Cyclopropylamines as LSD1 inhibitors” (Incyte Corporation, priority 2014, dated 2017)

Biological target: LSD-1 enzyme (Homo sapiens (Human), UniProt O60341)

## COCC1(CN[C@@H]2C[C@H]2c2ccccc2)CCN(CC2(C(=O)O)CCC2)CC1 [Example 36, 1-{[4-(methoxymethyl)-4-({[(1R,2S)-2-phenylcyclopropyl]amino}methyl)piperidin-1-yl]methyl}cyclobutanecarboxylic acid]
  IC50: < 100 nM
